From ChEMBL document CHEMBL1134301, “[1,2,4]Triazino[4,3-a]benzimidazole acetic acid derivatives: a new class of selective aldose reductase inhibitors” (J Med Chem, 2001)

Biological target: Aldo-keto reductase family 1 member B1 (Rattus norvegicus, UniProt P07943)
Assay: Inhibitory concentration to aldose reductase (ALR-2) obtained from rat lens

O=C1NC(=O)[C@@]2(CCOc3ccc(F)cc32)N1 [SORBINIL]
IC50: 650 nM
